Assay results as given in US9725430B2, “Use of small molecule inhibitors targeting EYA tyrosine phosphatase” (Children's Hospital Medical Center, priority 2013, dated 2017).

Sequences of proteins named here, by UniProt entry; tags and fusion partners are left off. Residues count along the entry.
UniProt P97480, 223-510: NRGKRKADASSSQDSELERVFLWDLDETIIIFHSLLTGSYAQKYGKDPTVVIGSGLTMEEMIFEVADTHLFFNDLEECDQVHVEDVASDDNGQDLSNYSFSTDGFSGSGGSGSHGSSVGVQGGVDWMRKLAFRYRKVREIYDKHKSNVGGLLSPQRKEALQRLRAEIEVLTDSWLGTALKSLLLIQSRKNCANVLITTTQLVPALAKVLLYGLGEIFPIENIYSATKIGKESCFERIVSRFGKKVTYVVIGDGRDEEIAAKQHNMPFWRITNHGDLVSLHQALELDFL

Molecular target: Eya3(ED) (Mus musculus (Mouse), UniProt P97480)
Experiment: p-nitrophenylphosphate (pNPP) assay, catalytic domain of Eya3
Format: biochemical
Conditions: pNPP substrate
Description: The catalytic domain of mouse Eya3 (“ED”, comprising residues 223-510 of Eya3) was purified as described by Rayapureddi, J. P. et al. (FEBS Lett 580, 3853-3859 (2006), incorporated by reference in its entirety). For full-length Eya3 (“hEYA3”), human Eya3 isoform 2 (representing the major species identified in human cell lines by mass spectrometry, expressed as residues 127-573 of NM_001990, isoform 1) was sub-cloned into pDEST565 to express a poly-histidine-Glutathione-S-transferase (His-GST) tagged fusion protein with a TVMV protease site. The protein was purified by glutathione-S-transferase affinity chromatography followed by TVMV cleavage, Ni-NTA chromatography, and finally size exclusion chromatography.
An inhibitory assay was conducted using the previously described p-nitrophenylphosphate assay (Rayapureddi, J. P. et al. Nature 426, 295-298 (2003)). Briefly, ED was incubated in a reaction mixture containing 20 mM MES pH 6, 2 mM MgCl2, 125 μM inhibitor, 3.4 mM para-nitrophenol phosphate (pNPP) and 0.01 μg/μL enzyme. The amount of 4-nitrophenol (pNP) produced was monitored at […] on a BioTek EL808 plate reader. […]
The compounds were then tested using full-length human recombinant, purified EYA3 and pNPP as a substrate. […] IC50 values were then calculated directly from regression curves using PRISM software. […]

CCCCc1oc2ccccc2c1C(=O)c1ccc(O)cc1 [Compound 1b]
IC50: 10.1 µM
